Source: US5087627A, “Agent for treatment of disorders of the cerebro-neural transmission system” (Santen Pharmaceutical Co., Ltd., priority 1989, dated 1992)
Like-named read-outs stand apart in the source and are kept apart here. Only a part of the results on these compounds is given; other tests are left out.

By UniProt entry, the sequences of proteins in these tests, tags left out. Residues count along the entry.
UniProt G1SYA7, 1-469: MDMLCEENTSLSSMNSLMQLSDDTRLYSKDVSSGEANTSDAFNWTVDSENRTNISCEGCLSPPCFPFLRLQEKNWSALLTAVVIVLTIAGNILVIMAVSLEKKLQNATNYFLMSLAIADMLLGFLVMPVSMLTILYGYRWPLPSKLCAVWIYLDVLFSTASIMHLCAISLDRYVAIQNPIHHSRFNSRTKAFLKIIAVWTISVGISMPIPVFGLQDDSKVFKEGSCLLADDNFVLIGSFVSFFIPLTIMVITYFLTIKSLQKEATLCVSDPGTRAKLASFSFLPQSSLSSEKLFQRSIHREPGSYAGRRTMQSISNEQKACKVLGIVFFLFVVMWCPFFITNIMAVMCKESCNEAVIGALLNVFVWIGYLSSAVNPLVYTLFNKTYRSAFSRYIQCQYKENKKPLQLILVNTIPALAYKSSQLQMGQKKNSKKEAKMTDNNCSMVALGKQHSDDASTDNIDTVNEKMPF

Biological target: 5-HT2 receptor (Oryctolagus cuniculus, UniProt G1SYA7)
Assay: antagonistic test against 5-HT2 using vessel (thoracic aorta) of rabbit, 5-HT-induced contraction
Design: species or system tissue, rabbit (Japanese white)
Settings: read-out: IC50 (concentration which can inhibit 50% of the contraction caused by 5-HT alone), rabbit thoracic aorta strips, 5-HT 10^-6 M, 30 minutes pre-treatment, 37° C.

Structure (SMILES) | IC50 | IC50 (dihydrochloride)
COc1ccc(CCN2CCN(C(Cc3ccccc3)c3ccccc3)CC2)cc1OC (racemic) | 280 nM | 
COc1ccc(CCN2CCN(C(Cc3ccccc3)c3ccccc3)CC2)cc1OC (single isomer, unassigned) [compound No. 5] |  | 210 nM
COc1ccc(CCN2CCN(C(Cc3ccccc3)c3ccccc3)CC2)cc1OC (single isomer, unassigned) [compound No. 6] |  | 2000 nM
